Values quoted from earlier work as cited in patent publication US20030105046A1, “Interleukin converting enzyme (ICE) and central nervous system damage” (The General Hospital Corporation, priority 1997, published 2003).

Biological target: T1, CPP32/Yama/Apopain (Homo sapiens, UniProt P42574)
T1 sequence (P42574 29-175 limits assumed): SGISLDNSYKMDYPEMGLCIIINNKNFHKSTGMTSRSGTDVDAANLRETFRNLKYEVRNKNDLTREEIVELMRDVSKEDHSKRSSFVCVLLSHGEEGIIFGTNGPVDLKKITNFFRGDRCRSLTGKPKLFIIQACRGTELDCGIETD
T1 sequence (P42574 176-277 limits assumed): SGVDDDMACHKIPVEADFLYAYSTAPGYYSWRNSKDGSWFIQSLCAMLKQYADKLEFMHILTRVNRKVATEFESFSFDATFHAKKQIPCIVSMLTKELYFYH
Conditions: Nicholson et al., Nature 376 (1995); cited from earlier work

Ac-DEVD-CHO
Dose inhibiting PARP cleavage: 1 nM
